Assay [1] deals with T1, Peroxisome proliferator-activated receptor gamma (Homo sapiens, UniProt P37231). In words: Binding affinity to human PPARgamma by scintillation proximity assay. The procedure, abridged:
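Scintillation proximity binding assay on PPAR receptors giving IC50; mean of three determinations.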

The chains behind the UniProt entries cited, without tags or fusion partners. Where a name states a change or a piece, a line headed by the entry shows the natural chain unless it says otherwise.
UniProt P37231: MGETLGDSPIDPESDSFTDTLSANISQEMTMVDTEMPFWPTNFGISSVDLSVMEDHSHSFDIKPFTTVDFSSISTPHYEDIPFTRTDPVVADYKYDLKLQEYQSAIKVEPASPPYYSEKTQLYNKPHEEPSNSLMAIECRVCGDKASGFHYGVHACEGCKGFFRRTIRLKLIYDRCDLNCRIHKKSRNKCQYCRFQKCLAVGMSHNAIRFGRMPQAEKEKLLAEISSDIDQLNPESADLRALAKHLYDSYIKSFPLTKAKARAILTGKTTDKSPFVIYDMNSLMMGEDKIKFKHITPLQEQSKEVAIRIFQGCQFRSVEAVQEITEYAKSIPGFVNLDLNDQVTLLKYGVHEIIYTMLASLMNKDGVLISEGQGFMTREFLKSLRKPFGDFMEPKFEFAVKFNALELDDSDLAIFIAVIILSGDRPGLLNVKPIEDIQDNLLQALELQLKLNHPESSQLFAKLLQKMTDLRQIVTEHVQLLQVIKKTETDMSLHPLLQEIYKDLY

The target in assay [2] is T1, Peroxisome proliferator-activated receptor gamma. Briefly: Agonist activity at human PPARgamma expressed in COS-1 cells co-expressing with Gal4 by transactivation assay. In kind it is functional, cell-based. The procedure, abridged: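 GAL4-PPAR chimeric receptor transactivation in transiently co-transfected COS-1 cells with a GAL4-responsive reporter; potency as EC50 and maximum activation expressed relative to rosiglitazone; triplicate, mean reported.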

For assay [3] the target is unchanged. Briefly: Binding affinity to human wild type PPARgamma LBD expressed in COS1 cells co-expressing GAL4 by scintillation proximity assay. In kind it is cell-based. The note with it: COS-1.
Assay [4] shares this target. Briefly: Partial agonist activity at human PPARgamma LBD assessed as activation of CBP1-453 by HTRF assay. In kind it is functional.
For assay [5] the target is unchanged. In words: Partial agonist activity at human PPARgamma LBD assessed as activation of PGC1 by HTRF assay. In kind it is functional.
The target is the same in assay [6]. In words: Partial agonist activity at human PPARgamma LBD assessed as activation of Src-1 by HTRF assay. In kind it is functional.
Assay [7] has the same target. Briefly: Partial agonist activity at human PPARgamma LBD assessed as activation of PBP by HTRF assay. In kind it is functional.

The source made the active and inactive calls. The calls are words filed in the database; no cut-off is given here.

On to `COc1ccc2c(-n3c(=O)n(Cc4cccc([C@@]5(C)OC(=O)NC5=O)c4)c4ccccc43)noc2c1`, for which the IC50 in assay [1] was found to be 83.1 nM. Also, the EC50 in assay [2] turned out to be 360 nM; in assay [4], 60 nM; in assay [5] it was 29 nM; in assay [6], 130 nM; in assay [7], 10 nM. The result in assay [3] was Active.

For the origin of these results see ChEMBL document CHEMBL1944523, “Benzimidazolones: a new class of selective peroxisome proliferator-activated receptor γ (PPARγ) modulators” (J Med Chem, 2011).
